Source: patent publication US7635685B2 (priority 2003, dated 2009)

How the values were obtained:
[1] = system: 27-mer 16S A site RNA construct (AS-wt); assay: surface plasmon resonance (SPR) binding to immobilized 16S A site RNA; details: immobilized 27-mer 16S A site RNA construct (AS-wt), tested form: sulfate
[2] = system: Bacillus subtilis; assay: MIC microdilution assay against Bacillus subtilis; assay type: cell-based; details: tested form: sulfate; for MIC: Bacillus subtilis (ATCC 6633)

Compound `NC[C@@H]1O[C@H](O[C@H]2[C@@H](O)[C@H](O[C@@H]3[C@@H](O)[C@H](N)C[C@H](N)[C@H]3O[C@H]3O[C@H](CN)[C@@H](O)[C@H](O)[C@H]3N)O[C@@H]2CO[C@@H]2O[C@H](CN)[C@@H](O)[C@H](O)[C@H]2N)[C@H](N)[C@@H](O)[C@@H]1O` has a Kd [1] of 600 nM and an MIC [2] of 5 to 7 µg/mL.

In the case of `NC[C@@H]1O[C@H](O[C@H]2[C@@H](O)[C@H](O[C@@H]3[C@@H](O)[C@H](N)C[C@H](N)[C@H]3O[C@H]3O[C@H](CN)[C@@H](O)[C@H](O)[C@H]3N)O[C@@H]2CO[C@@H]2O[C@H](CN)[C@@H](O)[C@H]2O)[C@H](N)[C@@H](O)[C@@H]1O`, the Kd [1] is reported as 700 nM and the MIC [2] is reported as 5 to 7 µg/mL.

In the case of `NC[C@@H]1O[C@H](O[C@H]2[C@@H](O)[C@H](O[C@@H]3[C@@H](O)[C@H](N)C[C@H](N)[C@H]3O[C@H]3O[C@H](CN)[C@@H](O)[C@H](O)[C@H]3N)O[C@@H]2CS)[C@H](N)[C@@H](O)[C@@H]1O`, the Kd [1] is reported as 2900 nM and the MIC [2] is reported as 10 to 11 µg/mL.

Compound `NC[C@@H]1O[C@H](O[C@H]2[C@@H](O)[C@H](O[C@@H]3[C@@H](O)[C@H](N)C[C@H](N)[C@H]3O[C@H]3O[C@H](CN)[C@@H](O)[C@H](O)[C@H]3N)O[C@@H]2CO[C@@H]2O[C@H](CO)[C@@H](N)[C@@H](N)[C@H]2O)[C@H](N)[C@@H](O)[C@@H]1O` has a Kd [1] of 2000 nM and an MIC [2] of 8.5 to 10 µg/mL.

`NC[C@@H]1O[C@H](O[C@H]2[C@@H](O)[C@H](O[C@@H]3[C@@H](O)[C@H](N)C[C@H](N)[C@H]3O[C@H]3O[C@H](CN)[C@@H](O)[C@H](O)[C@H]3N)O[C@@H]2CO[C@@H]2O[C@H](CO)[C@@H](O)[C@H](O)[C@H]2N)[C@H](N)[C@@H](O)[C@@H]1O` was tested, and the Kd [1] was 900 nM.

`NC[C@@H]1O[C@H](O[C@H]2[C@@H](O)[C@H](O[C@@H]3[C@@H](O)[C@H](N)C[C@H](N)[C@H]3O[C@H]3O[C@H](CN)[C@@H](O)[C@H](O)[C@H]3N)O[C@@H]2CO[C@@H]2O[C@H](CO)[C@@H](O)[C@H]2O)[C@H](N)[C@@H](O)[C@@H]1O` was tested, and the Kd [1] was 700 nM and the “antibacterial activity against Bacillus subtilis” value [2] was “effective”.

For `NC[C@@H]1O[C@H](O[C@H]2[C@@H](O)[C@H](O[C@@H]3[C@@H](O)[C@H](N)C[C@H](N)[C@H]3O[C@H]3O[C@H](CN)[C@@H](O)[C@H](O)[C@H]3N)O[C@@H]2CO[C@@H]2O[C@H](CN)[C@@H](N)[C@H](O)[C@H]2O)[C@H](N)[C@@H](O)[C@@H]1O`, the Kd [1] was 1300 nM and the MIC [2] was 3.5 to 4 µg/mL.

With `NC[C@@H]1O[C@H](O[C@H]2[C@@H](O)[C@H](OC[C@H]3O[C@@H](O[C@@H]4[C@@H](O)[C@H](N)C[C@H](N)[C@H]4O[C@H]4O[C@H](CN)[C@@H](O)[C@H](O)[C@H]4N)[C@H](O)[C@@H]3O[C@H]3O[C@@H](CN)[C@@H](O)[C@H](O)[C@H]3N)O[C@@H]2CO)[C@H](N)[C@@H](O)[C@@H]1O` the Kd [1] was 1900 nM and the MIC [2] was 5 to 10 µg/mL.

With `NC[C@@H]1O[C@H](O[C@H]2[C@@H](O)[C@H](O[C@@H]3[C@@H](O)[C@H](N)C[C@H](N)[C@H]3O[C@H]3O[C@H](CN)[C@@H](O)[C@H](O)[C@H]3N)O[C@@H]2CO[C@@H]2O[C@H](CO)[C@@H](N)[C@H](O)[C@H]2O)[C@H](N)[C@@H](O)[C@@H]1O` the Kd [1] was 700 nM and the MIC [2] was 6 to 7 µg/mL.
